Experiment [1] has as its target T1, Glucocorticoid receptor (Homo sapiens, UniProt P04150).
T1 sequence (P04150 whole entry): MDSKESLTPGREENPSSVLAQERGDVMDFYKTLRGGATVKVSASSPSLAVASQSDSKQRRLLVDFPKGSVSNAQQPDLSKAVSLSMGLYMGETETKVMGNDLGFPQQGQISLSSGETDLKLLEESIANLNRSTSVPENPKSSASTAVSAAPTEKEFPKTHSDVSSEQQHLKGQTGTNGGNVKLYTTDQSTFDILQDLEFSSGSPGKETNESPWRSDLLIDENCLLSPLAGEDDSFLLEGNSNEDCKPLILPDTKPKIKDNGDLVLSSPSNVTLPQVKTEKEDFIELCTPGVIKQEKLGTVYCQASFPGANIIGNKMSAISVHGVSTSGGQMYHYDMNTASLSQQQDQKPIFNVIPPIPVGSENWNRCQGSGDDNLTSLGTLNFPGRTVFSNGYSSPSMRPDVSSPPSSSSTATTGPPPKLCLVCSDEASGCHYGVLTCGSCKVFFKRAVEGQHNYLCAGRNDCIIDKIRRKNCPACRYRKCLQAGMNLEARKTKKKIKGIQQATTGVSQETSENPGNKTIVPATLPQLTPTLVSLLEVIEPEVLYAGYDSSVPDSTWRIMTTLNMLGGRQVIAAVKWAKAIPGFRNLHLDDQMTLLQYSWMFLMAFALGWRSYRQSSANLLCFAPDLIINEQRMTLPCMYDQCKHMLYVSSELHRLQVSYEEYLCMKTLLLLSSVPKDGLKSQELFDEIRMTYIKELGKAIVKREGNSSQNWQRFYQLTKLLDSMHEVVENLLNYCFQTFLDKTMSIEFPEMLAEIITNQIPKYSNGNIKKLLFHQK
Briefly: Agonist activity at glucocorticoid receptor in human A549 cells assessed as inhibition of IL-1beta-induced NF-kappaB dependent E-selectin activation by luciferase reporter gene assay. Format: cell-based. (Reporter assays use an easily measured gene product as a stand-in for the process of interest.)

Experiment [2] concerns the target T1, Glucocorticoid receptor. The experiment is described as follows: Transactivation of glucocorticoid receptor ligand binding domain (unknown origin) transfected in human HeLa cells assessed as activation of NP-1 by GAL4 luciferase reporter gene assay. Format: cell-based.
For experiment [3], the target named is T1, Glucocorticoid receptor. Briefly: Binding affinity to glucocorticoid receptor (unknown origin) by fluorescence polarization assay. On the technique in general: Polarisation of emitted light reports the rotation of a fluorescent probe.

For orientation: EC50 means the midpoint of the concentration-response curve. As usually defined, the Ki is a dissociation constant, usually derived from enzyme kinetics or from competition with a known ligand. Read a high Ki as a looser hold on the target.

Take `CC(C)(C(=O)Nc1nncs1)C(c1ccccc1)c1ccc2c(cnn2C2CCCCCC2)c1` (racemic): the EC50 came to 21 nM on Glucocorticoid receptor [1] and 188 nM on Glucocorticoid receptor [2].

Turning to `CC(C)n1ncc2cc(C(c3ccccc3)C(C)(C)C(=O)Nc3nncs3)ccc21` (racemic), the EC50 on Glucocorticoid receptor [1] was 195 nM; on Glucocorticoid receptor [2], above 10000 nM.

As for `CC(C(=O)Nc1nncs1)[C@@H](c1ccccc1)c1ccc2c(cnn2-c2ccc(F)cc2)c1` (single isomer, unassigned; diastereomer 2), at Glucocorticoid receptor [3], the Ki came to 0.59 nM. In addition, the EC50 on Glucocorticoid receptor [2] is 27 nM.

The compound `CC(C(=O)Nc1nncs1)[C@@H](c1ccccc1)c1ccc2c(cnn2-c2ccc(F)cc2)c1` (single isomer, unassigned; diastereomer 3) had a Ki on Glucocorticoid receptor [3] of 0.48 nM. For the same compound, the EC50 at Glucocorticoid receptor [2] is 0.1 nM.
